# Reference: PubChem BioAssay AID430 (Sanford-Burnham Center for Chemical Genomics, 2006)
# This is a selection; strong and weak results do not stand in their true shares. Entries with a potency or affinity are not part of this list. Some results for these compounds are left out of this collection, so the calls shown say nothing about other tests. Active and inactive are the calls of the source. Cut-off read from the data, not from the text of the source: active = cytotoxicity above about 50%; inactive = the rest.
# Assay: HPDE-C7 pancreatic duct cell viability loss – fluorescence, HTS (AID 430);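 note: cells exposed to compound for 48 hours before viability readout; 0% = vehicle and 100% = reference cytotoxic drug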
# Conditions: HPDE-C7 pancreatic duct cells viability, at 10 µM, active compounds read high
row,SMILES,cytotoxicity
1,O=C(OC1CN2CCC1CC2)C(CO)(c1ccccc1)c1ccccc1 (configuration not stated),inactive: 7.9%
2,CN(C)c1cccc(C(=O)NCC2(N(C)C)CCCCC2)c1,inactive: -0.3%
